Values of other authors as cited in patent US8088918B2, “Noncardiotoxic pharmaceutical compounds” (Williamsburg Holdings LLC, priority 2004, dated 2012).

Conditions: cited from earlier work

For Cc1nc2n(c(=O)c1CCN1CCC(c3noc4cc(F)ccc34)CC1)CCCC2 [risperidone], the pKa is given as 8.24.
